The target of the test is HDAC3:SMRT (Homo sapiens, UniProt O15379+Q9Y618). The experiment in a line: Fluorescence anisotropy direct binding of 2-FAM-Ins(1,3,4,5,6)P5. For orientation: Fluorescence polarisation rises when a labelled molecule tumbles more slowly, as on binding a larger partner.

Sequences of proteins named here, by UniProt entry; tags and fusion partners are left off. A change or cut given only in a name is not applied to a line headed by its entry. Residues count along the entry.
UniProt O15379: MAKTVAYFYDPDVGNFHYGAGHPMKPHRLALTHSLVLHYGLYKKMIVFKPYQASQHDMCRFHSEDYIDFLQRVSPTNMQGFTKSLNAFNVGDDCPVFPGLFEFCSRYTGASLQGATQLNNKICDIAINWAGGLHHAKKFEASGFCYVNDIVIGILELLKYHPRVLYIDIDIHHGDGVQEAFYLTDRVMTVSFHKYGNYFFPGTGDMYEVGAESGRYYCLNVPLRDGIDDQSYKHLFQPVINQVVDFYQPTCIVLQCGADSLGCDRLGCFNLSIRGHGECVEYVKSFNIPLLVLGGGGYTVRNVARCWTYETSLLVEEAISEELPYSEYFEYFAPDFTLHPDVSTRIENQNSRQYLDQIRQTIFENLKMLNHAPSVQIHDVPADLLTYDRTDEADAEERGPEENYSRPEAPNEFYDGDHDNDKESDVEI
UniProt Q9Y618, 350-480: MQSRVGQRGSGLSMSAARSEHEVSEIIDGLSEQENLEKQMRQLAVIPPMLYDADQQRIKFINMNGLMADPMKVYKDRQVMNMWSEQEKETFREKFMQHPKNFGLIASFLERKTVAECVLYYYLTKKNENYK

From article PMC4848466, “Insights into the activation mechanism of class I HDAC complexes by inositol phosphates” (Nature Communications, 2016) come the findings set out here.

In the case of trichostatin A [TSA], the “enhancement of the binding of 2-FAM-Ins(1,3,4,5,6)P5 to the allosteric site by inhibitor” value was “threefold enhancement”.
